PubChem AID 2061109: pyroptosis screen in mouse bone marrow macrophages, one dose (5 µM).
Target pathway: NLRP3 inflammasome, triggered by LPS and nigericin. Dead cells counted by propidium iodide.
Higher is more protection: 100% equals untreated cells, 0% the stimulated control, negative values set to 0. Active call (*): above 70%. Part of the library is listed.

{"Structure (SMILES)": "CC(C)(C)C1CCC(N(Cc2ccc(C(=O)NCCC(=O)O)cc2)C(=O)Nc2ccc(OC(F)(F)F)cc2)CC1", "inhibition [%]": "40.1"}
{"Structure (SMILES)": "COC(=O)c1c(C)cc(O)c(C)c1O", "inhibition [%]": "0.0"}
{"Structure (SMILES)": "O=C(/C=C/n1cnc(-c2cc(C(F)(F)F)cc(C(F)(F)F)c2)n1)NNc1cnccn1", "inhibition [%]": "0.0"}
{"Structure (SMILES)": "CC(NCCC(c1ccccc1)c1ccccc1)c1ccccc1.Cl", "inhibition [%]": "0.0"}
{"Structure (SMILES)": "COc1ccc2cc(OCC3(C(=O)O)CN(C(=O)c4ccc(F)cc4)C3)ccc2c1", "inhibition [%]": "0.0"}
{"Structure (SMILES)": "CC(=O)NCC(=O)N[C@@H](CCC(N)=O)C(=O)N[C@@H](Cc1ccccc1)C(=O)N[C@@H](CCCN=C(N)N)C(=O)c1nc2ccccc2s1", "inhibition [%]": "69.1"}
{"Structure (SMILES)": "Fc1cc(F)c2c(c1)C[C@@H](n1c(CCNCc3ccccc3)c[nH]c1=S)CO2", "inhibition [%]": "37.9"}
{"Structure (SMILES)": "c1ccc(Cn2c(N3CCNCC3)nc3ccccc32)cc1", "inhibition [%]": "62.9"}
{"Structure (SMILES)": "COc1cc2ncnc(N3CCN(C(=O)Nc4ccc(Oc5ccccc5)cc4)CC3)c2cc1OC", "inhibition [%]": "0.0"}
{"Structure (SMILES)": "CC(C)(C)c1ccc(S(=O)(=O)Nc2ccc(-n3ccnc3)cc2)cc1", "inhibition [%]": "13.4"}
{"Structure (SMILES)": "C=CCN1CCc2nc(N)sc2CC1.Cl.Cl", "inhibition [%]": "0.0"}
{"Structure (SMILES)": "COc1nccnc1NS(=O)(=O)c1ccc(NC(=O)/C=C/c2ccc([N+](=O)[O-])s2)cc1", "inhibition [%]": "53.2"}
{"Structure (SMILES)": "O=C1Nc2ccc(Cl)cc2/C1=C/c1cc(Br)c(O)c(Br)c1", "inhibition [%]": "50.2"}
{"Structure (SMILES)": "CCCCCCCCCCC(C)(C)C(=O)Nc1c(OC)cc(OC)cc1OC", "inhibition [%]": "8.7"}
{"Structure (SMILES)": "O=C(Nc1nnc(-c2ccco2)o1)c1cc(-c2ccccc2)nc2ccccc12", "inhibition [%]": "0.0"}
{"Structure (SMILES)": "NS(=O)(=O)c1cc(C(=O)[O-])c(NCc2ccco2)cc1Cl.[Na+]", "inhibition [%]": "66.2"}
{"Structure (SMILES)": "COc1ccc(-c2csc(NC(=O)[C@H](Cc3c[nH]c4ccccc34)NS(=O)(=O)c3ccc(C)cc3)n2)cc1", "inhibition [%]": "70.4*"}
{"Structure (SMILES)": "CCCCCCCCO", "inhibition [%]": "0.0"}
{"Structure (SMILES)": "Cc1cc(-c2ccccc2)nnc1C(=O)N1CCN(c2ncccn2)CC1", "inhibition [%]": "79.8*"}
{"Structure (SMILES)": "O=C([O-])c1nc(=O)[nH]c(=O)[nH]1.[K+]", "inhibition [%]": "0.0"}
{"Structure (SMILES)": "CC(=O)Nc1ccc(C(=O)Nc2ccccc2N)cc1", "inhibition [%]": "0.0"}
{"Structure (SMILES)": "O[C@H]1[C@H](O)[C@@H](O)CN2CC[C@H](O)[C@H]12", "inhibition [%]": "46.7"}
{"Structure (SMILES)": "Cc1c(C)c2c(c(C)c1O)CCC(C)(C(=O)O)O2", "inhibition [%]": "0.0"}
{"Structure (SMILES)": "O=C(NC(=O)c1c(F)cccc1F)Nc1cc(Cl)c(OC(F)(F)C(F)C(F)(F)F)cc1Cl", "inhibition [%]": "34.8"}
{"Structure (SMILES)": "C=CC(=O)Nc1ccc2ncnc(Nc3cccc(Br)c3)c2c1", "inhibition [%]": "57.9"}
{"Structure (SMILES)": "CC[C@H](C)[C@H](NC(=O)[C@H](Cc1ccc(O)cc1)NC(=O)[C@@H](NC(=O)[C@H](CCCN=C(N)N)NC(=O)[C@@H](N)CC(=O)O)C(C)C)C(=O)N[C@@H](Cc1cnc[nH]1)C(=O)N1CCC[C@H]1C(=O)O", "inhibition [%]": "20.6"}
{"Structure (SMILES)": "CC[C@H]1OC(=O)[C@H](C)[C@@H](O[C@H]2C[C@@](C)(OC)[C@@H](O)[C@H](C)O2)[C@H](C)[C@@H](O[C@@H]2O[C@H](C)C[C@H](N(C)C)[C@H]2O)[C@](C)(O)C[C@@H](C)CN(C)[C@H](C)[C@@H](O)[C@]1(C)O", "inhibition [%]": "75.4*"}
{"Structure (SMILES)": "COc1c(OCCCN2CCOCC2)ccc2c3n(c(=NC(=O)c4cnc(N)nc4)nc12)CCN3.Cl.Cl", "inhibition [%]": "0.0"}
{"Structure (SMILES)": "O=C(NCc1cccs1)C1CCCCC1", "inhibition [%]": "0.0"}
{"Structure (SMILES)": "O=C(O)[C@@H](Cc1ccccc1)Nc1cc(-c2ccc(OCc3ccccc3)cc2)ncn1", "inhibition [%]": "0.0"}
{"Structure (SMILES)": "CO[C@@]1(NC(=O)C2SC(=C(C(N)=O)C(=O)O)S2)C(=O)N2C(C(=O)O)=C(CSc3nnnn3C)CS[C@@H]21", "inhibition [%]": "68.1"}
{"Structure (SMILES)": "C=C(F)C(=O)N1CCN(c2nc(OC[C@@H]3CCCN3C)nc3c2CCN(c2cccc4cccc(Cl)c24)C3)C[C@@H]1CC#N", "inhibition [%]": "64.8"}
{"Structure (SMILES)": "Cc1ccc(-c2nnc(NC(=O)c3ccccc3)s2)cc1", "inhibition [%]": "82.0*"}
{"Structure (SMILES)": "Cc1ccc2c(c1CCC(=O)O)CC[C@@H](NS(=O)(=O)c1ccc(Cl)cc1)C2", "inhibition [%]": "0.9"}
{"Structure (SMILES)": "CCc1nccn1CC(=O)c1ccc(O)c(O)c1.Cl", "inhibition [%]": "0.0"}
{"Structure (SMILES)": "Cc1ccc2c(c1)C(=O)[C@]1(O)CCN(c3ccccc3)C1=N2", "inhibition [%]": "0.0"}
{"Structure (SMILES)": "CC(=O)N[C@H]1CSSC[C@@H](C(N)=O)NC(=O)[C@H](C(C)C)NC(=O)[C@H](C)NC(=O)[C@H](Cc2cnc[nH]2)NC1=O.O=C(O)C(F)(F)F", "inhibition [%]": "63.5"}
{"Structure (SMILES)": "C[C@@H]1Cc2c([nH]c3ccccc23)[C@@H](c2c(F)cc(/C=C/C(=O)O)cc2F)N1CC(C)(C)F", "inhibition [%]": "0.0"}
{"Structure (SMILES)": "COc1ccc2c(c1)c1c(n2Cc2ccc(Cl)cc2)C(C)=NCC1", "inhibition [%]": "74.5*"}
{"Structure (SMILES)": "COc1cc2nccc(Oc3ccc(NC(=O)Cc4ccc(Cl)c(C(F)(F)F)c4)cc3)c2cc1OC", "inhibition [%]": "70.7*"}
{"Structure (SMILES)": "C[C@@H]1O[C@@H](Oc2cc(O)c3c(=O)c(O)c(-c4ccc(O)cc4)oc3c2O)[C@H](O)[C@H](O[C@@H]2O[C@H](CO)[C@@H](O)[C@H](O)[C@H]2O)[C@H]1O", "inhibition [%]": "0.0"}
{"Structure (SMILES)": "CCCOc1ccc(/C=C2\\SC(=O)NC2=O)cc1", "inhibition [%]": "40.2"}
{"Structure (SMILES)": "CCCCC(=O)OCC(=O)[C@]1(O)Cc2c(O)c3c(c(O)c2[C@@H](OC2CC(NC(=O)C(F)(F)F)C(O)C(C)O2)C1)C(=O)c1c(OC)cccc1C3=O", "inhibition [%]": "0.0"}
{"Structure (SMILES)": "CC(=O)N1CCC(NC(=O)NC23CC4CC(CC(C4)C2)C3)CC1", "inhibition [%]": "0.0"}
{"Structure (SMILES)": "CC(C)=CCc1cc(-c2coc3cc(O)cc(O)c3c2=O)cc(O)c1O", "inhibition [%]": "6.7"}
{"Structure (SMILES)": "O=C(COCC(=O)N1CCN(C(c2ccccc2)c2ccccc2)CC1)Nc1ccc(Cl)cc1C(=O)[O-].[Na+]", "inhibition [%]": "71.2*"}
{"Structure (SMILES)": "Nc1cc(COc2c(Cl)cc(C[C@H](N)C(=O)O)cc2Cl)c2oc(-c3ccccc3)nc2c1", "inhibition [%]": "0.0"}
{"Structure (SMILES)": "Cc1cc(C)c(-c2n[nH]c(C)c2C)cc1C(=O)N1CC(c2ccc(C#N)cc2)C1", "inhibition [%]": "0.0"}
{"Structure (SMILES)": "O=c1oc2cc(O)ccc2c2ccc(O)cc12", "inhibition [%]": "0.0"}
{"Structure (SMILES)": "N[C@@H](CC(=O)N1CCn2c(nnc2C(F)(F)F)C1)Cc1cc(F)c(F)cc1F.O=P(O)(O)O", "inhibition [%]": "0.0"}
{"Structure (SMILES)": "Cl.NC1=NCC2c3ccccc3Cc3ccccc3N12", "inhibition [%]": "50.9"}
{"Structure (SMILES)": "COc1ccc(S(=O)(=O)Nc2cccnc2Nc2ccc(O)cc2)cc1", "inhibition [%]": "16.2"}
{"Structure (SMILES)": "O=S(=O)(Nc1ccc(-c2nc(OC3CCC(O)CC3)c3cn[nH]c3n2)cc1)c1cc(Cl)ccc1F", "inhibition [%]": "81.3*"}
{"Structure (SMILES)": "Cc1c(CC(=O)O)c(-c2ccccc2)nn1Cc1ccccc1S(=O)(=O)N1CCOCC1", "inhibition [%]": "21.6"}
{"Structure (SMILES)": "CCCCCCS(=O)(=O)NC(=O)c1ccc(CSCc2ccc(-c3ccccc3)cc2)cc1", "inhibition [%]": "62.8"}
{"Structure (SMILES)": "COc1ccc2c(c[n+](C)c3c4cc5c(cc4ccc23)OCO5)c1OC", "inhibition [%]": "55.3"}
{"Structure (SMILES)": "CN1C(=O)[C@@H](NC(=O)c2cc(Cc3ccccc3)on2)COc2ccccc21", "inhibition [%]": "37.9"}
{"Structure (SMILES)": "CCN(c1ccccc1)c1cc(=NC)n(C)c(C)n1.Cl", "inhibition [%]": "0.0"}
{"Structure (SMILES)": "Cc1cc(Nc2ccccc2)nc(Nc2ccc(NC(=O)c3ccccc3Cl)cc2)n1", "inhibition [%]": "38.6"}
{"Structure (SMILES)": "CCCCCCCCCCCCCCCc1cccc(O)c1C(=O)O", "inhibition [%]": "10.1"}
{"Structure (SMILES)": "Cl.Clc1ccc(N2CCN(Cc3c[nH]c4ncccc34)CC2)cc1", "inhibition [%]": "0.0"}
{"Structure (SMILES)": "Oc1cccc2nc3ccccc3nc12", "inhibition [%]": "35.2"}
{"Structure (SMILES)": "Cl.Cl.Clc1ccc(Nc2nnc(Cc3ccncc3)c3ccccc23)cc1", "inhibition [%]": "67.3"}
{"Structure (SMILES)": "COc1cc(C(=O)NC2C[C@H]3CCC[C@@H](C2)N3CC(=O)Nc2ccccc2Cl)cc(OC)c1OC", "inhibition [%]": "0.0"}
{"Structure (SMILES)": "CCOC(=O)[C@H](CCc1ccccc1)N[C@@H](C)C(=O)N1[C@H](C(=O)O)C[C@H]2CCCC[C@@H]21", "inhibition [%]": "0.0"}